Laboratory results reported in published antibiotic growth screens (doi:10.1038/s41589-023-01349-8).
The list shows a part of the results.

The compounds below were run on A. baumannii ATCC 17978 (assay: relative growth (fraction of control); higher = less inhibition). Details: 50 µM.

| Compound | relative growth |
| --- | --- |
| CC(C)NC(=O)N[C@@H]1C=C[C@H](CC(=O)NCCCN(C)C)O[C@@H]1CO | 0.858 |
| CN[C@H](CC(C)C)C(=O)NC1C(=O)N[C@@H](CC(N)=O)C(=O)N[C@H]2C(=O)NC3C(=O)N[C@H](C(=O)N[C@@H](C(=O)O)c4cc(O)cc(O)c4-c4cc3ccc4O)[C@H](O)c3ccc(c(Cl)c3)Oc3cc2cc(c3O[C@@H]2OC(CO)[C@@H](O)[C@H](O)[C@H]2O[C@H]2C[C@](C)(N)[C@H](O)[C@H](C)O2)Oc2ccc(cc2Cl)[C@H]1O.Cl (stereo partly drawn) | 0.967 |
| CS(=O)(=O)OCCCCOS(C)(=O)=O | 1 |
| C[C@@H](Cc1c[nH]c2ccccc12)NC(=O)CN | 0.983 |
| CC(=O)N(C)C[C@H]1Oc2cc(C#CCN(C)C)ccc2S(=O)(=O)N([C@H](C)CO)C[C@@H]1C | 0.987 |
| Cc1c(NC(=O)c2cccnc2)c(=O)n(-c2ccccc2)n1C | 1.02 |
| CCOc1cc(OCC)cc(C(=O)N[C@@H](Cc2ccc(-n3cc(CCC(=O)NO)nn3)cc2)C(=O)OC)c1 | 0.902 |
| O=C(/C=C/c1ccc(O)cc1)c1ccc(O)cc1O | 1.05 |
| O=C(O)[C@H]1CCS(=O)(=O)C1 | 1.13 |
| O=C1O[C@@H](c2ccccc2)[C@@H](c2ccccc2)N2[C@@H](c3ccc(OCCO)cc3)[C@]3(C(=O)Nc4ccc(C#CC5(O)CCCCCC5)cc43)[C@@H](C(=O)Nc3nc4ccccc4s3)[C@H]12 | 0.904 |
| Cc1ccc(S(=O)(=O)N[C@@H](Cc2ccccc2)C(=O)NCCn2cc(CCC(=O)NO)nn2)cc1 | 1.25 |
| COc1ccccc1NC(=O)N(C)C[C@H]1Oc2cc(Br)ccc2S(=O)(=O)N([C@H](C)CO)C[C@@H]1C | 1.01 |
| COc1ccc(CNC(=O)C[C@@H]2C[C@H]3c4cc(NS(=O)(=O)c5ccc(F)cc5)ccc4O[C@H]3[C@H](CO)O2)cc1 | 0.866 |
| COCC(=O)Nc1ccc2c(c1)C(=O)N(C)C[C@@H](OC)[C@H](C)CN(Cc1ccccc1OC)[C@@H](C)CO2 | 1.01 |
| C[C@H]1CN([C@@H](C)CO)S(=O)(=O)c2ccc(C#CCN(C)C)cc2O[C@H]1CN(C)Cc1ccccc1F | 1.01 |
| OCc1c[nH]c2ccccc12 | 0.923 |
| O=S(=O)(NCC[C@H]1CC[C@@H](NS(=O)(=O)c2cccc(Cl)c2)[C@H](CO)O1)c1cccc(F)c1 | 1.04 |
| COc1ccc(-c2coc3c(O)c(O)c(OC)cc3c2=O)cc1 | 1.04 |
| CCC1(C)OC(=O)N(C)C1=O (stereo not drawn) | 0.995 |
| C[C@H]1CN([C@@H](C)CO)S(=O)(=O)c2ccc(C#CCN(C)C)cc2O[C@@H]1CN(C)C(=O)CN(C)C | 0.878 |
| CO[C@@]1(NC(=O)C(C(=O)[O-])c2ccc(O)cc2)C(=O)N2C(C(=O)[O-])=C(CSc3nnnn3C)CO[C@@H]21.[Na+].[Na+] (stereo partly drawn) | 1.11 |

| Compound | relative growth |
| --- | --- |
| O=C(OOC(=O)c1ccccc1)c1ccccc1 | 0.974 |
| CC(O)Cn1cnc2c1c(=O)n(C)c(=O)n2C (stereo not drawn) | 0.957 |
| COc1ccc([Si](C)(C)[C@@H]2[C@@H](CC(=O)N3Cc4ccccc4C[C@H]3CO)O[C@]3(C(=O)N(Cc4ccc(N5C(=O)c6cccc7cccc5c67)cc4)c4ccccc43)[C@H]2C)cc1 | 0.958 |
| NCCCC[C@H](N)C(=O)O | 1.1 |
| CC1(C)CC[C@]2(C(=O)O[C@@H]3O[C@H](CO)[C@@H](O)[C@H](O)[C@H]3O)CC[C@]3(C)C(=CC[C@H]4[C@@]5(C)CC[C@@H](O[C@@H]6O[C@H](C(=O)O)[C@@H](O[C@@H]7OC[C@@H](O)[C@H](O)[C@H]7O)[C@H](O[C@@H]7OC[C@](O)(CO)[C@H]7O)[C@H]6O)C(C)(C)[C@@H]5CC[C@]43C)[C@@H]2C1 | 1.03 |
| NS(=O)(=O)c1cc2c(cc1C(F)(F)F)NCNS2(=O)=O | 1.02 |
| CN(Cc1ccc(C(C)(C)C)cc1)Cc1cccc2ccccc12.Cl | 0.954 |
| CN1CCC(=C2c3ccccc3C=Cc3ccccc32)CC1.Cl | 0.965 |
| NC(=O)CCCCC1CCSS1 (stereo not drawn) | 1.01 |
| COCCOC(=O)N1C(=O)[C@@]2(c3cc(C#CC4(O)CCCCCC4)ccc31)[C@H](C(=O)NC[C@H](O)c1ccccc1)[C@H]1C(=O)O[C@H](c3ccccc3)[C@H](c3ccccc3)N1[C@@H]2c1ccc(OCCO)cc1 | 1.14 |
| O=c1nc[nH]c2nn(-c3ccccc3)nc12 | 0.789 |
| C[C@@H]1CN([C@H](C)CO)C(=O)c2cc(-c3ccc(C(=O)N(C)C)cc3)cnc2O[C@@H]1CN(C)C(=O)c1cccnc1 | 0.964 |
| CN(C)c1nc(N)nc(Cn2ccnc2)n1 | 1.01 |
| O=C(O)c1cncc(C(=O)O)c1 | 0.991 |
| O=C(CCNc1n[nH]c(=O)[nH]c1=O)NCc1ccco1 | 0.97 |
| COc1cc2c(cc1-c1coc3c4c(ccc3c1=O)OC(C)(C)CC4)OCO2 | 0.852 |
| CCCOc1ccc(C(=O)OCCN(CC)CC)cc1N.Cl | 1.1 |
| COc1ccc(-c2csc(CCN)n2)cc1 | 0.997 |
| Cc1cc(C)c(C(=O)O)c(=O)[nH]1 | 1.12 |
| CCNC(=O)C[C@H]1CC[C@H](NC(=O)C2CCOCC2)[C@H](CO)O1 | 0.858 |
| O=C(C[C@H]1CC[C@@H](NS(=O)(=O)c2ccc(F)cc2)[C@@H](CO)O1)N1CCC(Cc2ccccc2)CC1 | 1.13 |

| Compound | relative growth |
| --- | --- |
| COc1ccc(S(=O)(=O)N2C[C@@H](O)COC[C@H]3O[C@@H](CC(=O)NCc4ccc(Cl)c(Cl)c4)CC[C@@H]32)cc1 | 0.869 |
| O=C(C[C@H]1CC[C@@H]2[C@H](COC[C@@H](O)CN2Cc2cc(F)ccc2F)O1)N[C@@H]1CCN(Cc2ccccc2)C1 | 1.11 |
| C[C@H](CO)N1C[C@H](C)[C@@H](CN(C)Cc2ccccc2F)Oc2cc(C#CC3CC3)ccc2S1(=O)=O | 1.12 |
| COCC(=O)Nc1ccc2c(c1)C(=O)N(C)[C@@H]1CC[C@@H](CC(=O)NCc3ccc(OC)cc3)O[C@H]1CO2 | 1.03 |
| O=C1c2ccccc2[C@](Cc2ccccc2I)(C(=O)NCc2ccccc2)[C@H](c2ccc(CO)cc2)N1Cc1ccccc1C(F)(F)F | 0.936 |
| Cn1cnc(S(=O)(=O)N[C@@H]2CC[C@@H](CC(=O)NCC3CC3)O[C@H]2CO)c1 | 1.07 |
| CC(C)NC(=O)N(C)C[C@H]1Oc2cc(C#Cc3ccc(F)cc3)ccc2S(=O)(=O)N([C@H](C)CO)C[C@@H]1C | 0.808 |
| COc1ccc([Si](C)(C)[C@H]2[C@H](CC(=O)N3CCC[C@H]3CO)O[C@@]3(C(=O)N(Cc4cccc(N5C(=O)COc6ccccc65)c4)c4ccccc43)[C@@H]2C)cc1 | 1.07 |
| C[C@@H]1[C@@H]([Si](C)(C)F)[C@H](CCO)O[C@@]12C(=O)N(Cc1cccc(N3C(=O)c4cccc5cccc3c45)c1)c1ccccc12 | 1.22 |
| CN1C(=O)CC[C@H]1c1cccnc1 | 0.906 |
| Cn1c(=O)c2[nH]c(NCCN3CCOCC3)nc2n(C)c1=O | 0.948 |
| O=C(C[C@@H]1C=C[C@H](NC(=O)C2CC2)[C@H](CO)O1)NCCCN1CCOCC1 | 1.06 |
| O=C(C[C@@H]1C=C[C@H](NC(=O)CN2CCOCC2)[C@@H](CO)O1)NCCc1ccccc1 | 1.1 |
| CN(C)CCCN1C(=O)[C@@]2(Cc3ccccc31)c1ccccc1C(=O)N(C1CCCCC1)[C@H]2c1ccc(CO)cc1 | 0.921 |
| CO[C@@H]1CN(C)C(=O)c2ccc(NC(=O)C3CCOCC3)cc2OC[C@H](C)N(Cc2cccnc2)C[C@@H]1C | 0.98 |
| Cc1cc(O)c(C=O)c(O)c1C(=O)O | 1.05 |
| CN1CCN(C(=O)C[C@H]2C=C[C@H](NC(=O)c3ccc4c(c3)OCO4)[C@@H](CO)O2)CC1 | 0.901 |
| C[C@@H](N)c1cnn(-c2ccccc2F)c1 | 1.12 |
| O=C(C[C@H]1CC[C@H]2[C@@H](COC[C@@H](O)CN2S(=O)(=O)c2ccccc2Cl)O1)NCc1ccccc1Cl | 0.856 |
| Cc1cncc2cccc(S(=O)(=O)N3CC[C@H](N(C/C=C/c4ccc(Br)cc4)C/C=C/c4ccc(Br)cc4)C3)c12 | 0.882 |
| CCOC(=O)c1cccc(C(=O)O)n1 | 0.995 |

| Compound | relative growth |
| --- | --- |
| O=c1oc2c(O)c(O)cc3c(=O)oc4c(O)c(O)cc1c4c23 | 0.977 |
| NC(=O)NCCC[C@H](N)C(=O)O | 0.919 |
| C[C@@H]1CN([C@@H](C)CO)S(=O)(=O)c2ccc(C#CCN(C)C)cc2O[C@@H]1CN(C)Cc1ccccn1 | 0.987 |
| COc1ccc(-c2coc3cc(OC(C)=O)cc(OC(C)=O)c3c2=O)cc1 | 0.985 |
| O=c1oc2cc3occ(-c4ccccc4)c3cc2c2ccccc12 | 1.04 |
| NS(=O)(=O)c1ccc(Cl)c2nonc12 | 1.01 |
| O=C(c1cccs1)N1c2ccccc2Sc2ccccc21 | 1.26 |
| C[C@@H]1CN([C@H](C)CO)S(=O)(=O)c2ccc(-c3ccc(C#N)cc3)cc2O[C@H]1CN(C)C(=O)CN(C)C | 1.01 |
| Nc1nc(S)c2nc[nH]c2n1 | 0.91 |
| CCC(=O)N1CCC[C@](C)(C(=O)NS(=O)(=O)c2ccc(S(C)(=O)=O)cc2)C1 | 1.02 |
| CC(=O)CC(c1ccccc1)c1c(O)c2ccccc2oc1=O (stereo not drawn) | 1.13 |
| NS(=O)(=O)c1cc2c(cc1Cl)NC(C1CC3C=CC1C3)NS2(=O)=O (stereo not drawn) | 0.86 |
| O=C1NS(=O)(=O)c2ccccc21 | 1.05 |
| COC(=O)/C=C/c1cc(OC)c(OC)c(OC)c1 | 1.01 |
| C[C@H](O)C#Cc1ccc2c(c1)O[C@H](CN(C)C(=O)c1ccccc1)[C@@H](C)CN([C@@H](C)CO)S2(=O)=O | 1 |
| CCCNC(=O)N(C)C[C@@H]1Oc2ncc(-c3ccc(C(=O)N(C)C)cc3)cc2C(=O)N([C@@H](C)CO)C[C@H]1C | 0.965 |
| COCCNC(=O)C[C@@H]1CC[C@@H]2[C@H](COC[C@@H](O)CN2C(=O)Nc2ccccc2OC)O1 | 1.03 |
| Cl.NNc1nncc2ccccc12 | 1.08 |
| Cc1ccc(Nc2nc3ccccc3s2)cc1Cl | 1 |
| COc1ccc(OC)c(S(=O)(=O)NCCO)c1 | 1.02 |
